# Tests used:
# NMRI strain mice = details: mouse, in vivo, po
# Procedure: The acute toxicity was determined on NMRI strain mice of both sexes weighing 20 to 25 g each by using 6 animals for each dose. The compounds to be tested were administered perorally in a volume of 20 ml/kg, the highest dose applied was 1000 mg/kg. After the administration the animals were kept under usual laboratory conditions for 7 days.
# The data given as "higher than" a certain value mean the highest dose administered without noting any death of animals.
# [1] = system: gastric mucosa lesions induced by absolute ethanol; assay: Gastroprotective activity, test with absolute ethanol (gastric mucosa erosions); type: in vivo, rat; details: ED50 of gastric acid inhibition (Shay) related to ED50 of inhibition of gastric erosion
# Procedure: Rats of both sexes weighing 200 to 250 g, each previously starved for 24 hours, were used in this experiment. The lesions of gastric mucosa were induced by the oral administration of absolute ethanol in a dose of 1 ml/animal. After one hour following the administration, the animals were killed by an overdose of ether, the stomach was excised and the alterations of gastric mucosa were examined. The lengths of the erosions were measured and summarized (expressed in mm) for each stomach to obtain the erosion index by calculating the average value of the group. The inhibition was calculated in percentage by comparing the value of the group treated with ethanol to that of the control group treated only with the vehicle. Various doses of the compounds to be tested were administered, perorally, in a volume of 5 ml/kg using a pretreatment time of 60 minutes. Eight rats were used for each dose. /A. Robert, Gastroenterology 77, 761-767 (1979)/.
# ^x Relative activity = ED50 value of the gastric acid inhibition
# related to the ED50 value of the inhibition of the gastric erosion.
smiles,measurement,setting,value
"NC[C@H]1CC[C@H](C(=O)Oc2ccc(CCC(=O)O)cc2)CC1 [cetraxate, trans-3-[4-[4-(aminomethyl)cyclohexylcarbonyloxy]phenyl]-propionic acid, reference compound]",LD50 p.o.,NMRI strain mice,higher than 1000 mg/kg
same,Relative activity related to the inhibition of the free acid,[1],higher than 4

# — US5597822A, “Pharmaceutical compositions for the prevention and/or treatment a gastrointestinal diseases” (Egis Pharmaceutical, priority 1993, dated 1997)
